Data taken from patent US20180258163A1 (Chugai, published 2018).
Residue numbers refer to the chain shown, from its start. Each block holds one binder with its values, some of them ahead of it.

Target: T1, soluble human FcγRIIb (human, UniProt P31994 43-217, limits assumed)
T1 construct: soluble His-tagged form; also called hFcγRIIb
T1 sequence (looked up): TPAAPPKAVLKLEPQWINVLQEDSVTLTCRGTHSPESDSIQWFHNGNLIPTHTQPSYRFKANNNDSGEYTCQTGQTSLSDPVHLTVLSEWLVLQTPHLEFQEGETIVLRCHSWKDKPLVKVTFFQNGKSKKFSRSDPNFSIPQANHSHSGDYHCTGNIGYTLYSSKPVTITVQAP
Assay: SPR, Ab-antigen (C5) complex over captured hFcγRIIb, pH 7.4, 25C
Procedure: An appropriate amount of an anti-His antibody was fixed onto Sensor chip CM5 (GE Healthcare) by the amine coupling method using a His capture kit (GE Healthcare) to capture hFcγRIIb. […] 20 mM N-(2-Acetamido)-2-aminoethanesulfonic acid, 150 mM NaCl, 1.2 mM CaCl₂, and 0.05% (w/v) Tween 20 at pH 7.4 was used as the running buffer, and the respective buffer was also used to dilute the soluble hFcγRIIb. To regenerate the sensor chip, 10 mM glycine-HCl at pH 1.5 was used. All measurements were carried out at 25° C. […] To calculate the parameters, the BIACORE T100 Evaluation Software (GE Healthcare) was used.

BIACORE fold (relative binding, original Ab2=1.00): 0.91 fold
B1: CFP0020H0261-001-G1dP1/CFP0018H0012-002-G1dN1/CFP0020L233-k0 (bispecific antibody, human IgG1, kappa)
heavy 1: not shown
heavy 2: not shown
light: DIQMTQSPSSLSASVGDRVTITCRASQSIHNDLAWYQQKPGKAPKLLIYEASELQSGVPSRFSGSGSGTDFTLTISSLQPEDFATYYCQHYSSYPYTFGQGTKVEIKRTVAAPSVFIFPPSDEQLKSGTASVVCLLNNFYPREAKVQWKVDNALQSGNSQESVTEQDSKDSTYSLSSTLTLSKADYEKHKVYACEVTHQGLSSPVTKSFNRGEC

BIACORE fold (relative binding, original Ab2=1.00): 1.59 fold
B2: CFP0020H0261-G1dP1/CFP0018H0012-G1dN1/CFP0020L233-001-k0 (bispecific antibody, human IgG1, kappa)
heavy 1: not shown
heavy 2: not shown
light: B1 light with G16K

BIACORE fold (relative binding, original Ab2=1.00): 9.63 fold
B3: CFP0020H0261-G1dP1/CFP0018H0012-G1dN1/CFP0020L233-029-k0 (bispecific antibody, human IgG1, kappa)
heavy 1: not shown
heavy 2: not shown
light: B1 light with G41R, S65R, T69R, T74K, S77R

BIACORE fold (relative binding, original Ab2=1.00): 1.52 fold
B4: CFP0020H0261-013-G1dP1/CFP0018H0012-013-G1dN1/CFP0020L233-k0 (bispecific antibody, human IgG1, kappa, name in Kabat numbering)
heavy 1: not shown
heavy 2: not shown
light: B1 light

BIACORE fold (relative binding, original Ab2=1.00): 1.05 fold
B5: CFP0020H0261-036-G1dP1/CFP0018H0012-G1dN1/CFP0020L233-k0 (bispecific antibody, human IgG1, kappa, name in Kabat numbering)
heavy 1: not shown
heavy 2: not shown
light: B1 light

BIACORE fold (relative binding, original Ab2=1.00): 2.16 fold
B6: CFP0020H0261-G1dP1/CFP0018H0012-G1dN1/CFP0020L233-024-k0 (bispecific antibody, human IgG1, kappa)
heavy 1: not shown
heavy 2: not shown
light: B1 light with S52R, S56R, S76R, Q79K

BIACORE fold (relative binding, original Ab2=1.00): 1.94 fold
B7: CFP0020H0261-G1dP1/CFP0018H0012-G1dN1/CFP0020L233-028-k0 (bispecific antibody, human IgG1, kappa)
heavy 1: not shown
heavy 2: not shown
light: B1 light with G41R, S52R, S56R, T74K, S77R

BIACORE fold (relative binding, original Ab2=1.00): 1.25 fold
B8: CFP0020H0261-G1dP1/CFP0018H0012-G1dN1/CFP0020L233-044-k0 (bispecific antibody, human IgG1, kappa)
heavy 1: not shown
heavy 2: not shown
light: B1 light with S76R

BIACORE fold (relative binding, original Ab2=1.00): 0.29 fold
B9: CFP0020H0261-G1dP1/CFP0018H0012-G1dN1/CFP0020L233-008-k0 (bispecific antibody, human IgG1, kappa)
heavy 1: not shown
heavy 2: not shown
light: B1 light with A25K, S26K

BIACORE fold (relative binding, original Ab2=1.00): 4.24 fold
B10: CFP0020H0261-G1dP1/CFP0018H0012-G1dN1/CFP0020L233-038-k0 (bispecific antibody, human IgG1, kappa)
heavy 1: not shown
heavy 2: not shown
light: B1 light with G41R, S65R, T69R, S76R, Q79K

BIACORE fold (relative binding, original Ab2=1.00): 0.2 fold
B11: CFP0020H0261-008-G1dP1/CFP0018H0012-008-G1dN1/CFP0020L233-k0 (bispecific antibody, human IgG1, kappa, name in Kabat numbering)
heavy 1: not shown
heavy 2: not shown
light: B1 light

BIACORE fold (relative binding, original Ab2=1.00): 1.89 fold
B12: CFP0020H0261-G1dP1/CFP0018H0012-G1dN1/CFP0020L233-006-k0 (bispecific antibody, human IgG1, kappa)
heavy 1: not shown
heavy 2: not shown
light: B1 light with S76R, Q79K

BIACORE fold (relative binding, original Ab2=1.00): 7.72 fold
B13: CFP0020H0261-G1dP1/CFP0018H0012-G1dN1/CFP0020L233-019-k0 (bispecific antibody, human IgG1, kappa)
heavy 1: not shown
heavy 2: not shown
light: B1 light with S65R, T69R, T74K, S77R

BIACORE fold (relative binding, original Ab2=1.00): 5.78 fold
B14: CFP0020H0261-G1dP1/CFP0018H0012-G1dN1/CFP0020L233-041-k0 (bispecific antibody, human IgG1, kappa)
heavy 1: not shown
heavy 2: not shown
light: B1 light with S52R, S56R, S65R, T69R, S76R, Q79K

BIACORE fold (relative binding, original Ab2=1.00): 11.1 fold
B15: CFP0020H0261-G1dP1/CFP0018H0012-G1dN1/CFP0020L233-032-k0 (bispecific antibody, human IgG1, kappa)
heavy 1: not shown
heavy 2: not shown
light: B1 light with S52R, S56R, S65R, T69R, T74K, S77R

BIACORE fold (relative binding, original Ab2=1.00): 3.18 fold
B16: CFP0020H0261-G1dP1/CFP0018H0012-G1dN1/CFP0020L233-025-k0 (bispecific antibody, human IgG1, kappa)
heavy 1: not shown
heavy 2: not shown
light: B1 light with S65R, T69R, S76R, Q79K

BIACORE fold (relative binding, original Ab2=1.00): 0.52 fold
B17: CFP0020H0261-023-G1dP1/CFP0018H0012-023-G1dN1/CFP0020L233-k0 (bispecific antibody, human IgG1, kappa, name in Kabat numbering)
heavy 1: not shown
heavy 2: not shown
light: B1 light

BIACORE fold (relative binding, original Ab2=1.00): 0.32 fold
B18: CFP0020H0261-G1dP1/CFP0018H0012-G1dN1/CFP0020L233-003-k0 (bispecific antibody, human IgG1, kappa)
heavy 1: not shown
heavy 2: not shown
light: B1 light with A25R, S26R

BIACORE fold (relative binding, original Ab2=1.00): 0.68 fold
B19: CFP0020H0261-G1dP1/CFP0018H0012-G1dN1/CFP0020L233-012-k0 (bispecific antibody, human IgG1, kappa)
heavy 1: not shown
heavy 2: not shown
light: B1 light with S52R, S56R

BIACORE fold (relative binding, original Ab2=1.00): 2.32 fold
B20: CFP0020H0261-G1dP1/CFP0018H0012-G1dN1/CFP0020L233-040-k0 (bispecific antibody, human IgG1, kappa)
heavy 1: not shown
heavy 2: not shown
light: B1 light with Q27R, S52R, S56R, S76R, Q79K

BIACORE fold (relative binding, original Ab2=1.00): 1.78 fold
B21: CFP0020H0261-G1dP1/CFP0018H0012-G1dN1/CFP0020L233-031-k0 (bispecific antibody, human IgG1, kappa)
heavy 1: not shown
heavy 2: not shown
light: B1 light with Q27R, S52R, S56R, T74K, S77R

BIACORE fold (relative binding, original Ab2=1.00): 1.01 fold
B22: CFP0020H0261-G1dP1/CFP0018H0012-G1dN1/CFP0020L233-010-k0 (bispecific antibody, human IgG1, kappa)
heavy 1: not shown
heavy 2: not shown
light: B1 light with G41R

BIACORE fold (relative binding, original Ab2=1.00): 3.51 fold
B23: CFP0020H0261-G1dP1/CFP0018H0012-G1dN1/CFP0020L233-043-k0 (bispecific antibody, human IgG1, kappa)
heavy 1: not shown
heavy 2: not shown
light: B1 light with Q27R, S65R, T69R, S76R, Q79K
